Patent publication US8686152B2, “4,4-disubstituted piperidine derivatives useful as inhibitors of dipeptidyl peptidase-1 (DPP-1)” (Janssen Pharmaceutica NV, priority 2010, dated 2014)

By UniProt entry, the sequences of proteins in these tests, tags left out. Residues count along the entry.
UniProt P53634, 25-463 limits assumed: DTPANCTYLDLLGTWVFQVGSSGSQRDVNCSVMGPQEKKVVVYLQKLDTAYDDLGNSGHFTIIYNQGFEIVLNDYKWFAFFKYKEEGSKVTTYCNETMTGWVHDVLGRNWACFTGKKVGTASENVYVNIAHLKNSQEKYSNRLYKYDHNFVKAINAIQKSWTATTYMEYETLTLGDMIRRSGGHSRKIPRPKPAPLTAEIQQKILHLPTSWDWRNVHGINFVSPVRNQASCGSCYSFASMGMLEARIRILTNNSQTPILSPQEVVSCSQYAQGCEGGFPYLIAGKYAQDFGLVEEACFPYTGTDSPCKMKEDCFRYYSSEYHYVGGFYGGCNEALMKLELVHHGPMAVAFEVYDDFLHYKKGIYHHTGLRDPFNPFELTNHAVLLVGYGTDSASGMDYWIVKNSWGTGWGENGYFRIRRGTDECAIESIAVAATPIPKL

Target: recombinant human DPP-1 (Cathepsin C) (Homo sapiens, UniProt P53634)
Experiment: DPP-1 Inhibition Assay (In Vitro), fluorogenic substrate GR-AMC
Details: read-out: DPP-1 Inhibition IC50; 0.15 nM DPP-1, 10 uM GR-AMC, pH 7.0, room temperature; average value where tested multiple times
Description: Test compounds were assessed for DPP-1 (Cathepsin C) inhibitory activity using a fluorogenic substrate, GR-AMC (Glycine-Arginine-amino-4-methylcoumarin, Bachem, I-1215). The amount of amino-methylcoumarin released is proportional to the DPP-1 activity, and the reaction is monitored kinetically with a Molecular Devices plate reader using black 96-well plates.
All compounds were tested under room temperature conditions. The assay buffer consisted of 50 mM HEPES, pH 7.0, 100 mM NaCl, 2 mM glutathione (GSH), and 0.002% TWEEN 20. GSH and TWEEN 20 were added to the buffer fresh daily. Just prior to use, an in-house preparation of recombinant human DPP-1 (240 μM stock, MW 49.6 kD) was diluted 600-fold in assay buffer containing fresh 2 mM dithiothreitol (DTT) to activate the enzyme, then diluted into assay buffer (without DTT) 133-fold for a DPP-1 working solution of 3 nM. Test compounds were diluted in DMSO for 20× their final assay concentrations.
Additions to a 96-well black Costar 3915 plates were as follows: 90 μL of 11 μM GR-AMC, 5 μL test compound (followed by mixing), and 5 μL 3 nM DPP-1 to start the reaction. Fluorescent reactions were monitored kinetically at 360 nm excitation, 440 nm emission on a Molecular Devices Spectramax XPS reader. The Softmax Pro software of the reader determined the initial velocity of the selected data (the first 3-5 minutes of the reaction), and the best linear regression fit of the initial kinetic data. Final assay conditions were 0.15 nM DPP-1, 10 uM GR-AMC, 50 mM HEPES, pH 7.0, 100 mM NaCl, 2 mM GSH, 0.002% TWEEN 20, 1 uM DTT, 5.0% DMSO. Initial velocity rates were plotted vs. test compound concentration by use of a four-parameter logistics equation (nonlinear regression, sigmoidal dose-response (variable slope), with fixed Hill (1.0) using GraphPad Prism® software for determination of DPP-1 IC50. Within-run assay coefficient of variation (CV) was generally <10%; between-run CV <20%.
Representative compounds of the present invention were tested according to the procedure as described above, with results as listed in Table 5, below.

| IC50 [µM] | Compound |
| --- | --- |
| > 20 | CS(=O)(=O)CC[C@H](N)C(=O)N1CCC(Cc2ccc(I)cc2)(C(=O)NC2CCCCC2)CC1 |
| > 20 | C#CC[C@H](N)C(=O)N1CCC(Cc2ccc(-c3ccccc3)cc2)(C(=O)NC2CCCCC2)CC1 |
| 20 | N[C@@H](Cn1cncn1)C(=O)N1CCC(Cc2ccc(-c3ccccc3)cc2)(C(=O)NC2CCCCC2)CC1 |
